The test addresses ΔF508-CFTR (Homo sapiens, UniProt P13569, DEL508-508). Kind of test: Membrane potential optical assay for ΔF508-CFTR correction (single-addition HTS format). The note with it: NIH 3T3 cells expressing ΔF508-CFTR, 16-24 hrs with test compound, 10 µM forskolin and genistein (20 µM); for EC50: read-out: Binned EC50. The source says: Membrane potential optical methods for assaying ΔF508-CFTR modulation properties of compounds.
The assay utilizes fluorescent voltage sensing dyes to measure changes in membrane potential using a fluorescent plate reader (e.g., FLIPR III, Molecular Devices, Inc.) as a readout for increase in functional ΔF508-CFTR in NIH 3T3 cells. The driving force for the response is the creation of a chloride ion gradient in conjunction with channel activation by a single liquid addition step after the cells have previously been treated with compounds and subsequently loaded with a voltage sensing dye.
To identify small molecules that correct the trafficking defect associated with ΔF508-CFTR; a single-addition HTS assay format was developed. Assay Plates containing cells are incubated for ∼2-4 hours in tissue culture incubator at 37°C, 5%CO2, 90% humidity. Cells are then ready for compound exposure after adhering to the bottom of the assay plates.
The cells were incubated in serum-free medium for 16-24 hrs in tissue culture incubator at 37°C, 5%CO2, 90% humidity in the presence or absence (negative control) of test compound. The cells were subsequently rinsed 3X with Krebs Ringers solution and loaded with a voltage sensing redistribution dye. To activate ΔF508-CFTR, 10 µM forskolin and the CFTR potentiator, genistein (20 µM), were added along with Cl^--free medium to each well. The addition of Cl^--free medium promoted Cl^- efflux in response to ΔF508-CFTR activation and the resulting membrane depolarization was optically monitored using voltage sensor dyes.
Bath Solution #1: (in mM) NaCl 160, KCl 4.5, CaCl2 2, MgCl2 1, HEPES 10, pH 7.4 with NaOH.
Chloride-free bath solution: Chloride salts in Bath Solution #1 are substituted with gluconate salts.
NIH3T3 mouse fibroblasts stably expressing ΔF508-CFTR are used for optical measurements of membrane potential. The cells are maintained at 37 °C in 5% CO2 and 90 % humidity in Dulbecco's modified Eagle's medium supplemented with 2 mM glutamine, 10 % fetal bovine serum, 1 X NEAA, β-ME, 1 X pen/strep, and 25 mM HEPES in 175 cm^2 culture flasks. For all optical assays, the cells were seeded at […] in 384-well matrigel-coated plates and cultured for 2 hrs at 37 °C before culturing at 27 °C for 24 hrs. for the potentiator assay. For the correction assays, the cells are cultured at 27 °C or 37 °C with and without compounds for 16 - 24 hours.

Sequences of proteins named here, by UniProt entry; tags and fusion partners are left off. A line that says so, or that is headed by a name, gives the form on record, which may keep a tag or linker.
UniProt P13569, with tags, fused parts or gaps DEL508-508: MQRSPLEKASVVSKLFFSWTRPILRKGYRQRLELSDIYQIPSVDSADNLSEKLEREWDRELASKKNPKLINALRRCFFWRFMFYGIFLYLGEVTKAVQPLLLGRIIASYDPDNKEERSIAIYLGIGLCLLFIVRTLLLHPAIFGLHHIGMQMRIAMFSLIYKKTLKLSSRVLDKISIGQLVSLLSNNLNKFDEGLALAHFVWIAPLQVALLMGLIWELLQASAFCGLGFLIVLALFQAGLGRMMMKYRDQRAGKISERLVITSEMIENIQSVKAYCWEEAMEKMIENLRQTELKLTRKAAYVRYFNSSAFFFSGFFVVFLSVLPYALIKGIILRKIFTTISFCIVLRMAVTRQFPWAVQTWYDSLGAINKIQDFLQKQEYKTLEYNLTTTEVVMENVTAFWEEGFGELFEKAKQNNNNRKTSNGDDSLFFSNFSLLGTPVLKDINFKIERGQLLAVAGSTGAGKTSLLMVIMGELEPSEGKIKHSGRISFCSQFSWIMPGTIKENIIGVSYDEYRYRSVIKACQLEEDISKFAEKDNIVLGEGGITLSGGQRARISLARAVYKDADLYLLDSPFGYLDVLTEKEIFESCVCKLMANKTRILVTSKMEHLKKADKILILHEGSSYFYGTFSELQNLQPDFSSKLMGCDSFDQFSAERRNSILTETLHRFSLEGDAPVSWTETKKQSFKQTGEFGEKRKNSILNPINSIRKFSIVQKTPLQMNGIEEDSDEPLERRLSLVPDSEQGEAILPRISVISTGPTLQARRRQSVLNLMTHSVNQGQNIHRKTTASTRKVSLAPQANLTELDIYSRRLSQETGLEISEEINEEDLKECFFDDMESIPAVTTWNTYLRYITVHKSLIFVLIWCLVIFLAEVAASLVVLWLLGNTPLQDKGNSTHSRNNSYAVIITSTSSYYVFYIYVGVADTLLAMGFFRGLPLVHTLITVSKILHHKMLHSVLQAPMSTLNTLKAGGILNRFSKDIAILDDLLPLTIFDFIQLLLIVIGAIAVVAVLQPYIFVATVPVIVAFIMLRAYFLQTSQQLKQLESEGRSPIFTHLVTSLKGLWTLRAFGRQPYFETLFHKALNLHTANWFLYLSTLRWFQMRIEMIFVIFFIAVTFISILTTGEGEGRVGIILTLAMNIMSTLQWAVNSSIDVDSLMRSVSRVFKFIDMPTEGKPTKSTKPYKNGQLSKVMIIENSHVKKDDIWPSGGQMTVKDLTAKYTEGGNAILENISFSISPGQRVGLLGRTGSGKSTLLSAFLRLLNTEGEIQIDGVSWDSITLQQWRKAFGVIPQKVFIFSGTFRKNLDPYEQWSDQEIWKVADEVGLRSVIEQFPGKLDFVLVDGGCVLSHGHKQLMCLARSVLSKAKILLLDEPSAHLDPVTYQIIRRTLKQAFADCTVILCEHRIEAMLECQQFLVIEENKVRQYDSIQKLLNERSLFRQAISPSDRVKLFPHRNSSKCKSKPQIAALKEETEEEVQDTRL

Read-outs that look alike come from different tables or passages of the source. Some results are limits rather than exact numbers.

A word on the EC50: it is the concentration that produces a half-maximal response. For `CC(C)(CO)c1cc2cc(NC(=O)C3(c4ccc5c(c4)OC(F)(F)O5)CC3)c(F)cc2[nH]1`, the “Binned Max Efficacy” value is “++ ("++" means between 25% and 100%)”; the EC50 was 2000 to 5000 nM.
Take `CC(C)(C)c1cc2c(C#N)c(NC(=O)C3(c4ccc5c(c4)OC(F)(F)O5)CC3)ccc2n1CCO` [Compound 315, N-(2-tert-butyl-4-cyano-1-(2-hydroxyethyl)-1H-indol-5-yl)-1-(2,2-difluorobenzo[d][1,3]dioxol-5-yl)cyclopropanecarboxamide]: where the note is “tested form: free compound”, the “Binned Max Efficacy” value is recorded as “+++ ("+++" means > 100%)” and the EC50 is less than 2000 nM.

(Values after EP2365972B1, “MODULATORS OF ATP-BINDING CASSETTE TRANSPORTERS” (Vertex Pharmaceuticals Incorporated, priority 2008, dated 2010).)
